Experimental findings from patent US20040127519A1 (published 2004) are described below.

By UniProt entry, the sequences of proteins in these tests, tags left out.
UniProt P49137, whole entry, species assumed: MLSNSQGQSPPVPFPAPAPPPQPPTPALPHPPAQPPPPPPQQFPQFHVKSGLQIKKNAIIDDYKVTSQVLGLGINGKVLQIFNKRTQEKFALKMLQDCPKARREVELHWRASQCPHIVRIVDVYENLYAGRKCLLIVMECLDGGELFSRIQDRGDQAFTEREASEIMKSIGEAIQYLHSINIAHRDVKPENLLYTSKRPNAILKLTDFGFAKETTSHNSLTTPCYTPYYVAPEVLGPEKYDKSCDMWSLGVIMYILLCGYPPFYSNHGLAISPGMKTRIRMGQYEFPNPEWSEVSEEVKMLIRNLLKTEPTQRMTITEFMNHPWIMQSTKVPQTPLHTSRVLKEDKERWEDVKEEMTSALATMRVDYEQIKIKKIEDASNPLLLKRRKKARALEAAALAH

The test concerns the target Recombinant MAPKAPK2 (Homo sapiens, UniProt P49137). As to the kind of experiment: Determination of MK-2 IC50 (HSP-peptide phosphorylation, anion exchange resin capture assay). Format: biochemical. Particulars: MK-2 Avg. IC50, Table I, aminocyanopyridine MK-2 inhibitors.

The term IC50 denotes the point on the concentration scale where inhibition reaches its midpoint.

Each structure is given as a SMILES string.

Take `N#Cc1c(-c2ccco2)cc(-c2cccc(O)c2)nc1N` [Example 99]: the IC50 came to 77.9 µM.
